According to patent US6579696B1, “Polymyxin B conjugates” (priority 1992, dated 2003):

Tests used:
[1] = vancomycin after reaction with crosslinker, aqueous solution
[2] = Fluorescence polarization of PMB-FITC alone; conditions: Table 47; Control (no endotoxin)
[3] = tested on: E. coli HB101

Substance	Soluble [1]	mP [2]	loss of anti-bacterial activity relative to PMB [3]
Bis (sulfosuccinimidyl) suberate:Vancomycin [Vanco:BS^3]	No	–	–
PMB-5-Thiocabamoyl-fluorescein [PMB-FITC]	–	58.5	2—4 fold
Sulfosuccinimidyl 4-(N-maleimidomethyl) cyclohexane-1-carbonate:Vancomycin [Vanco:sulfo-SMCC]	No	–	–
Sulfosuccinimidyl 6-[3-(2-pyridyldithio) propionamide] bexanoate:Vancomycin [Vanco:sulfo-LC SPDP]	No	–	–
Sulfosuccinimidyl (4-iodoacetyl) aminobenzoate:Vancomycin [Vanco:sulfo SIAB]	No	–	–
m-Maleimidobenzoyl-N-hydrosulfosuccinimide ester:Vancomycin [Vanco:sulfo-MBS]	No	–	–
